Measurements published in PubChem BioAssay AID624173 (National Center for Advancing Translational Sciences (NCATS), 2012).
The campaign covered roughly 410,000 compounds. About 490 (0.12%) were called active. Listed are the inconclusive results; actives and inactives stand elsewhere. Calls follow the shape of the dose curve; as a rule, active = well fitted inhibition curve with a large enough effect; inconclusive = small, poorly fitted or top-dose-only effect; inactive = flat fitted curve, though single readings scatter.

biological target: pyruvate kinase (Trypanosoma brucei) (UniProt Q57TT1); assay: qHTS of Trypanosoma Brucei Inhibitors; settings: TbPYK enzyme, Kinase-Glo Plus ATP luminescence, 45 min; also: nearly all actives have a fitted effect of over 50% in size
Potency is read from the fitted curve at half-maximal effect.

| Compound | Potency |
| --- | --- |
| CS(=O)(=O)c1cc([N+](=O)[O-])c2no[n+]([O-])c2c1 | inconclusive: 5.62 µM |
| O=P(Nc1nccs1)(c1ccccc1)c1nc2ccccc2s1 (stereo unspecified) | inconclusive: 2.82 µM |
| Cc1cc(SC(NC(=O)c2ccccc2)C(Cl)(Cl)Cl)nc(C(C)C)n1 (stereo unspecified) | inconclusive: 14.1 µM |
| CCN(CC)C(=S)SC(NC=O)C(Cl)(Cl)Cl (stereo unspecified) | inconclusive: 31.6 µM |
| Cc1cc(SC(NC(=O)c2ccc(F)cc2)C(Cl)(Cl)Cl)ncn1 (stereo unspecified) | inconclusive: 35.5 µM |
| c1cc(-c2nn[nH]n2)ccc1-c1nn[nH]n1 | inconclusive: 31.6 µM |
